# Assay results from patent US20220273751A1, “GPCR HETEROMER INHIBITORS AND USES THEREOF” (GPCR THERAPEUTICS, INC., priority 2019, published 2022).
# Chains of the proteins cited; added tags and fusions are not shown.
# UniProt P61073, whole entry: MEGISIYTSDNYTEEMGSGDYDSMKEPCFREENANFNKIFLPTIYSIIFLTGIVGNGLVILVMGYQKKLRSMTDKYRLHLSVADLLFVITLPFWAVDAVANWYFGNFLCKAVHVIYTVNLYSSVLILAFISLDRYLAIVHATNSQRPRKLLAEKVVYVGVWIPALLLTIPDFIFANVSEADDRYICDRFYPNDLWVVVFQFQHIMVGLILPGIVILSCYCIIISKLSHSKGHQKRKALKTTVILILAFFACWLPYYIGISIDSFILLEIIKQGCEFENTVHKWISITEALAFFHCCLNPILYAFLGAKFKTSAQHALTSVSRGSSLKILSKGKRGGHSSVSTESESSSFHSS
# Target: T1, CXCR4 (Homo sapiens, UniProt P61073)
# T1 construct: expressed in transfected cells; host or cells: MDA-MB-231 (adenoviral transduction)
# Experiment: Calcium mobilization assay, MDA-MB-231 cells transduced with CXCR4 only
# Assay type: cell-based
# Settings: FIG. 5A; CXCL12 15 nM, salmeterol 100 nM
structure (smiles),measurement,value
"OCc1cc(C(O)CNCCCCCCOCCCCc2ccccc2)ccc1O (stereo not shown) [salmeterol, Salmeterol]","calcium response, single agonist, cells expressing CXCR4",did not induce calcium response
